According to US9114107B2, “Compositions for inhibiting virus entry and promoting virolysis, and methods thereof” (priority 2010, dated 2015):
Entries after “also recorded” stand apart in the source; their conditions may differ.

How the values were obtained:
VSV-G pseudotype virus = format: cell-based, vesicular stomatitis virus
[1] = system: pseudovirus with VSV-G envelope; format: biochemical, vesicular stomatitis virus
HOS.T4.R5 cells = assay: WST-1 cytotoxicity assay; details: 48 hours

## CCC(C)[C@H](NC(=O)[C@@H](N)CCCNC(=N)N)C(=O)N[C@@H](CC(N)=O)C(=O)N[C@@H](CC(N)=O)C(=O)N[C@H](C(=O)N1CC(n2cc([C]34[CH]5[CH]6[CH]7[CH]3[Fe]6754389%10[CH]4[CH]3[CH]8[CH]9[CH]4%10)nn2)C[C@H]1C(=O)N[C@@H](Cc1c[nH]c2ccccc12)C(=O)N[C@@H](CO)C(=O)N[C@@H](CCC(=O)O)C(=O)N[C@@H](C)C(=O)N[C@@H](CCSC)C(=O)N[C@@H](CCSC)C(=O)NCCC(=O)N[C@@H](CCC(N)=O)C(=O)NCCC(=O)N[C@@H](CS)C(N)=O)C(C)CC (stereo partly drawn) [KR13, RINNIXWSEAMMβAQβAC-NH2]
VSV-G pseudotype virus
  inhibition of cell infection by control VSV-G pseudotype virus: lack of inhibition; also recorded: no statistically significant difference in the percentage infected
[1]
  p24 release from VSV-G pseudotyped virus: did not show any p24 leakage; also recorded: no effect
HOS.T4.R5 cells
  cytotoxicity, WST-1: No significant cytotoxicity; also recorded: no statistically significant differences measured
